In article PMC2774619 (Current Chemical Genomics, 2008) one finds IC50 data, which are given here for 1 compound.

Sequences of proteins named here, by UniProt entry; tags and fusion partners are left off.
UniProt P08482, whole entry: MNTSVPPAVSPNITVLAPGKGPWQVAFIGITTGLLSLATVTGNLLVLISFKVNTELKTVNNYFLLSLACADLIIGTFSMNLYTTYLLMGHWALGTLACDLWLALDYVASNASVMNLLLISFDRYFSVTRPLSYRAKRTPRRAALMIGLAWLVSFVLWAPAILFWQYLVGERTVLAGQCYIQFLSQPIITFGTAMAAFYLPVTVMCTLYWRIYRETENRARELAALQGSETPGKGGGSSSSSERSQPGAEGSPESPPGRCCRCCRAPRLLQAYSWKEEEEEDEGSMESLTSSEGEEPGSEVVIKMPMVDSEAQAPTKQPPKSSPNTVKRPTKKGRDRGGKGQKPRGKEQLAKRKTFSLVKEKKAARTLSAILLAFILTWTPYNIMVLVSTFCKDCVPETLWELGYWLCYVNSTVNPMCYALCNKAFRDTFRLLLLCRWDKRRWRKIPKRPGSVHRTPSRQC
UniProt P12657, whole entry: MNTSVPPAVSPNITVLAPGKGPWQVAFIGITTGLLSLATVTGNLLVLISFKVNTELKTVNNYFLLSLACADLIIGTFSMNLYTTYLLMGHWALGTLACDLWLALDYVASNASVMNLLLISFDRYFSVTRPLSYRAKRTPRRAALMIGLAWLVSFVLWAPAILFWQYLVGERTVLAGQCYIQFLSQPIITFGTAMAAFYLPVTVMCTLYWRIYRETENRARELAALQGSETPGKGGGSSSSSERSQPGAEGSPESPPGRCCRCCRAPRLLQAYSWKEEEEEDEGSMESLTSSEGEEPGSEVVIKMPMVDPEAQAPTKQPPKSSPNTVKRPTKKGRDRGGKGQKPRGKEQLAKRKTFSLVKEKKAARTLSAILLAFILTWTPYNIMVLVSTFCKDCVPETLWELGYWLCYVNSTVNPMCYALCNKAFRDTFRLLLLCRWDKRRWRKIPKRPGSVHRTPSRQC

Structures are written as SMILES. pIC50: −log10 of the molar value.

In experiment [1] the target is murine M1 muscarinic acetylcholine receptor (Rattus norvegicus, UniProt P08482). The experiment in a line: HTRF IP-One assay in CHO-M1 cells (1536-well). The conditions noted are these: read-out: IC50, IP-One Assay, LOPAC qHTS, 15 concentrations, antagonist mode with EC80 carbachol, tested form: dibromide. For orientation: Time-resolved FRET reads energy transfer from a long-lived donor to a nearby acceptor.

Experiment [2] deals with murine M1 muscarinic acetylcholine receptor (Mus musculus, UniProt P12657). The experiment in a line: Intracellular calcium assay in CHO-M1 cells (1536-well, FDSS-7000). The conditions noted are these: read-out: IC50, Calcium Assay, LOPAC qHTS, 15 concentrations, antagonist mode with EC80 carbachol, tested form: dibromide. A general note: A change in cytosolic calcium serves as a functional read-out for many receptors and channels.

For the compound `C=CC[N+](C)(C)c1ccc(CCC(=O)CCc2ccc([N+](C)(C)CC=C)cc2)cc1`, the pIC50 is 4.90 in experiment [1] and 5.20 in experiment [2].
